Earlier results, collected in paper PMC8976226 (Mutagenesis, 2022).

Tested on: Salmonella typhimurium, Escherichia coli tester strains
Conditions: hydrolysis products of anisyl formate; cited from earlier work

COc1ccc(CO)cc1 [anisyl alcohol]
Ames mutagenicity studies result: negative
